# In ChEMBL document CHEMBL1932996, “Structure-guided design of a methyl donor cofactor that controls a viral histone H3 lysine 27 methyltransferase activity” (J Med Chem, 2011):
# Columns and labels:
# [1] = tested on: BL21-DE3; conditions: Paramecium bursaria Chlorella virus 1
# [2] = tested on: BL21-DE3; conditions: Paramecium bursaria Chlorella virus 1; remark: listed apart in the source
SMILES,Km [1],kcat [1],kcat/Km [2]
C[S+](CC[C@H](N)C(=O)[O-])C[C@H]1O[C@@H](n2cnc3c(N)ncnc32)[C@H](O)[C@@H]1O (some centres not stated),126 µM,0.065 s⁻¹,516 M⁻¹ s⁻¹
C[S+](CC[C@H](N)C(=O)O)C[C@H]1O[C@@H](n2cnc3c(N)ncnc32)[C@H](O)[C@@H]1OCc1ccccc1 (mixture of isomers),86 µM,0.00233 s⁻¹,27.1 M⁻¹ s⁻¹
C[S+](CC[C@H](N)C(=O)O)C[C@H]1O[C@@H](n2cnc3c(N)ncnc32)[C@H](OCc2ccccc2)[C@@H]1O (mixture of isomers),86 µM,0.00217 s⁻¹,25.2 M⁻¹ s⁻¹
C[S+](CC[C@H](N)C(=O)O)C[C@H]1O[C@@H](n2cnc3c(N)ncnc32)[C@H](OCc2ccccc2)[C@@H]1OCc1ccccc1 (mixture of isomers),173 µM,0.00617 s⁻¹,35.6 M⁻¹ s⁻¹
